Assay results reported in PubChem BioAssay AID588350 (The Scripps Research Institute Molecular Screening Center, 2011).
The list shows a part of the results, in another mix than the full data. The source made the active and inactive calls.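 The calls were made as follows: active = mean activation above the mean of solvent-only control wells plus 3 SD (cut at about 22% in these data); inactive = the rest.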

Assay: GAA30 FXN promoter activators, confirmation, counter-screen for GAA850 frataxin promoter activator project, cell-based, luminescence, HEK293, lucGAA30, triplicate (AID 588350);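 also: counterscreen of GAA850 promoter hits where activity marks nonselective or luminescence artifacts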
Details: HEK293 lucGAA30 FXN promoter luciferase, 24 h; at 6 µM; stronger effect = higher value; DMSO = 0%, 5 µM ipriflavone = 100%

| Compound | activation |
| --- | --- |
| O=[N+]([O-])c1cc([N+](=O)[O-])c(NCC2CCS(=O)(=O)C2)c([N+](=O)[O-])c1 (stereo unspecified) | active: 32.6% |
